Assay results: article PMC7611940, “A Conformation Selective Mode of Inhibiting SRC Improves Drug Efficacy and Tolerability” (Cancer Research, 2021)

Chains of the proteins cited; added tags and fusions are not shown. Lines headed by an entry give the natural chain unless they say otherwise; changes in a name come on top.
UniProt P27361, whole entry: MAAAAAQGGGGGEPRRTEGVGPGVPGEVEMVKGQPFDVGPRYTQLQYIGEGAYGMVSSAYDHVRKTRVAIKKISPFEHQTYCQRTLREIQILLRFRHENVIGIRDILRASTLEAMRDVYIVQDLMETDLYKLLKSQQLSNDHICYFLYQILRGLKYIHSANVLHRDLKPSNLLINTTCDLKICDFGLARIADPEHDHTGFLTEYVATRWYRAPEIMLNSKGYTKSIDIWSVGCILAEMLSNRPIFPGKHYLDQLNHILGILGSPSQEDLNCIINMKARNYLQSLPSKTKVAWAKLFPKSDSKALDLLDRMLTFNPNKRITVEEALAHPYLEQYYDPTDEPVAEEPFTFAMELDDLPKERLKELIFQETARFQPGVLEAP
UniProt Q96RG2: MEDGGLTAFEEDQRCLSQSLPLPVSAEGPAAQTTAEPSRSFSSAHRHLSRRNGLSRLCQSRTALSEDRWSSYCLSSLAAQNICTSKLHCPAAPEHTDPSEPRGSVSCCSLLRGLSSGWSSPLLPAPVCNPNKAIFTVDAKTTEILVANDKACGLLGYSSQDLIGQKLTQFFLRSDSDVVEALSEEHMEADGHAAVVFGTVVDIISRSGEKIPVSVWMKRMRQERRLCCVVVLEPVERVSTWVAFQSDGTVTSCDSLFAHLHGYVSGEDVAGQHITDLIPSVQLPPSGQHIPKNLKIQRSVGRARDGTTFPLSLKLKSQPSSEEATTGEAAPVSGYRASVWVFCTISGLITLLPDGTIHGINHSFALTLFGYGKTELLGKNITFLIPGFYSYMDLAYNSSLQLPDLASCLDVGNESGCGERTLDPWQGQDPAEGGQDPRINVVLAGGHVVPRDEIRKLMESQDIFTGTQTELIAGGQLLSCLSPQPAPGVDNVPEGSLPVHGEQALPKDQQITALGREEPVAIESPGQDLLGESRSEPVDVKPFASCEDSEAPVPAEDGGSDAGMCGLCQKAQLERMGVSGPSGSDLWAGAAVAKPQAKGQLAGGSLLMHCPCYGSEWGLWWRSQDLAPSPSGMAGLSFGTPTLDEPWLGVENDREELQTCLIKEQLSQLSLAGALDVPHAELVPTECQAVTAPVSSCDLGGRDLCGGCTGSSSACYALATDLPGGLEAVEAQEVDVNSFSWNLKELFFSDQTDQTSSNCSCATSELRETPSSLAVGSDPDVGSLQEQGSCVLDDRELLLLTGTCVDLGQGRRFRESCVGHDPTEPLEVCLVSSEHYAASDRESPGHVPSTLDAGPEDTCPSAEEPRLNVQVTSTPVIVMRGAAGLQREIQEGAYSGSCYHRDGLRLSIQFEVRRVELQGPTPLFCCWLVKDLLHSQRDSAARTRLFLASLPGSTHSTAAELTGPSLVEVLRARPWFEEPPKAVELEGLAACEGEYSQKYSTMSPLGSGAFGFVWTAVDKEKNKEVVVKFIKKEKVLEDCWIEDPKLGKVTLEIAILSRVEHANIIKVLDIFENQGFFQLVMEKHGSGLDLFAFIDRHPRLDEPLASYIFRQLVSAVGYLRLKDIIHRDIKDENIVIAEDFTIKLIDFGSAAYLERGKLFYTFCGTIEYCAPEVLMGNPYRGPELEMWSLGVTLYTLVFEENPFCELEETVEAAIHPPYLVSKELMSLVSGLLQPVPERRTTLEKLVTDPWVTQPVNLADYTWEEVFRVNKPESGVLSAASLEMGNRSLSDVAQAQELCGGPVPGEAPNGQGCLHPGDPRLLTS
UniProt P57059: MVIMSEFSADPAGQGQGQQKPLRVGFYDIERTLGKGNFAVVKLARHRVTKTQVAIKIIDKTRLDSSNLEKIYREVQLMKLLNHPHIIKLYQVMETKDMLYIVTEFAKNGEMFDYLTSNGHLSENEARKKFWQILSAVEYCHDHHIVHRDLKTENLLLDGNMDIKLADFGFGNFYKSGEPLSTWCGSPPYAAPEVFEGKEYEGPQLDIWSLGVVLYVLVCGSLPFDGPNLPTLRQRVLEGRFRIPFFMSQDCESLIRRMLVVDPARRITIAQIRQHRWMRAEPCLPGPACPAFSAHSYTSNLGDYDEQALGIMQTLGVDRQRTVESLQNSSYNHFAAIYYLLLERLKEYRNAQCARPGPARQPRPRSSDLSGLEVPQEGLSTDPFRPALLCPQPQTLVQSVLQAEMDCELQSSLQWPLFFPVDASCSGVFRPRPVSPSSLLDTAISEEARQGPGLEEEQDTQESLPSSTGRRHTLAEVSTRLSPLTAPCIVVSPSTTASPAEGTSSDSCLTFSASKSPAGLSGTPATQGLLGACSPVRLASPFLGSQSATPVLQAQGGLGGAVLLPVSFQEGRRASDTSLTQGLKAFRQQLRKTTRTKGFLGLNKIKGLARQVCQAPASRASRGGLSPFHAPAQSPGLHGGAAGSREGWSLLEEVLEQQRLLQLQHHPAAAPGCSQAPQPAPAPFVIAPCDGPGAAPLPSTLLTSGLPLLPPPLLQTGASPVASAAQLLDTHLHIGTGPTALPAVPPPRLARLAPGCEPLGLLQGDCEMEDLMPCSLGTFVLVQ
UniProt Q9Y2H1: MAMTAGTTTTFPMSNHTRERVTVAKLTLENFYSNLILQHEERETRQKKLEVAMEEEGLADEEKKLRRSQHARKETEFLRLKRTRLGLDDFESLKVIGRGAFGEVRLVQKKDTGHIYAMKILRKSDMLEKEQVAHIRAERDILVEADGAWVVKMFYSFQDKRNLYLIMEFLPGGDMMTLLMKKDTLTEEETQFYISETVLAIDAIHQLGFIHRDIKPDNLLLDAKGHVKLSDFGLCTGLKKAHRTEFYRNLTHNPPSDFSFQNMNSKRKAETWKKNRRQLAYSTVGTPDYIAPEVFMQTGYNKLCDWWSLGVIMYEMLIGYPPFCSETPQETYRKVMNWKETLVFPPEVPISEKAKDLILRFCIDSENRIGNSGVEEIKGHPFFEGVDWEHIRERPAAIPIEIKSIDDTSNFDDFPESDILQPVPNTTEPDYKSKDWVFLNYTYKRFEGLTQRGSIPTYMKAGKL
UniProt P07948: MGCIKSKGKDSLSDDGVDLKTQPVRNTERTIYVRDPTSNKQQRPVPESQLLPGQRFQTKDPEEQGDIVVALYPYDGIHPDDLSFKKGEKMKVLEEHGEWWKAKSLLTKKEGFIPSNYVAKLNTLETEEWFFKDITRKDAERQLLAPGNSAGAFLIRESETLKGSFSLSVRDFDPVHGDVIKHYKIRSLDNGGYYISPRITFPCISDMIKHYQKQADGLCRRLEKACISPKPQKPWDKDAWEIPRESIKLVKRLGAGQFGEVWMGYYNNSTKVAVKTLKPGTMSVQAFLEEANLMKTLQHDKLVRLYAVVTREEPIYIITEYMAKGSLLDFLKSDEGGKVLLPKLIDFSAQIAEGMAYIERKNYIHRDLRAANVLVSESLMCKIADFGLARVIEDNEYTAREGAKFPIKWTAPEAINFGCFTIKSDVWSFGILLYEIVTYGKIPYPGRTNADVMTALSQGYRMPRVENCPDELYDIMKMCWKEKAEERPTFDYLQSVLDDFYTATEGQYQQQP
UniProt P78368: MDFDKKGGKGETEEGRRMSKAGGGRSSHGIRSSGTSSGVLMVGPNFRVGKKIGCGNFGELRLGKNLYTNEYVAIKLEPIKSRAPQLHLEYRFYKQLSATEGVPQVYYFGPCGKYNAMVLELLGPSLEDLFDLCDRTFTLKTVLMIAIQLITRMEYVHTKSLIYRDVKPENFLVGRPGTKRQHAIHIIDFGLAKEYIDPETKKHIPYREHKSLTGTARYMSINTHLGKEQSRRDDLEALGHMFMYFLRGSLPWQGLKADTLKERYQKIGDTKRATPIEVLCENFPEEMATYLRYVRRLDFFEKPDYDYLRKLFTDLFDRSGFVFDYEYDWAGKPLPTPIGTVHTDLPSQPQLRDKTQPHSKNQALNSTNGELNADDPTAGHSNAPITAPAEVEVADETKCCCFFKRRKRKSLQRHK
UniProt Q15835: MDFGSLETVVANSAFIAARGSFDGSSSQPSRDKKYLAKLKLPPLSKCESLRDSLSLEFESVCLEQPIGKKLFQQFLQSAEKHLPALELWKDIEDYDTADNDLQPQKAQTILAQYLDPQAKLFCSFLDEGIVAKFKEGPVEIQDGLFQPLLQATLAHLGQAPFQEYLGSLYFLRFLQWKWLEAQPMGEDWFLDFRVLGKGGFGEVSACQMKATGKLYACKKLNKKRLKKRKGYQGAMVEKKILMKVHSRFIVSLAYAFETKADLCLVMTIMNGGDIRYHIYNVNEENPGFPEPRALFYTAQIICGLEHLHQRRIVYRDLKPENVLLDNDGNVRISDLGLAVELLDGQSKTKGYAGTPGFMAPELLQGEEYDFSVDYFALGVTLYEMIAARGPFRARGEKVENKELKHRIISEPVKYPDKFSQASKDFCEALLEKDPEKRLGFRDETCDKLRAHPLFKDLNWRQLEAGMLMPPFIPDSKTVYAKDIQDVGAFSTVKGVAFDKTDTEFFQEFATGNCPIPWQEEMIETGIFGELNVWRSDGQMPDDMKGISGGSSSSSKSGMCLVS
UniProt P43403: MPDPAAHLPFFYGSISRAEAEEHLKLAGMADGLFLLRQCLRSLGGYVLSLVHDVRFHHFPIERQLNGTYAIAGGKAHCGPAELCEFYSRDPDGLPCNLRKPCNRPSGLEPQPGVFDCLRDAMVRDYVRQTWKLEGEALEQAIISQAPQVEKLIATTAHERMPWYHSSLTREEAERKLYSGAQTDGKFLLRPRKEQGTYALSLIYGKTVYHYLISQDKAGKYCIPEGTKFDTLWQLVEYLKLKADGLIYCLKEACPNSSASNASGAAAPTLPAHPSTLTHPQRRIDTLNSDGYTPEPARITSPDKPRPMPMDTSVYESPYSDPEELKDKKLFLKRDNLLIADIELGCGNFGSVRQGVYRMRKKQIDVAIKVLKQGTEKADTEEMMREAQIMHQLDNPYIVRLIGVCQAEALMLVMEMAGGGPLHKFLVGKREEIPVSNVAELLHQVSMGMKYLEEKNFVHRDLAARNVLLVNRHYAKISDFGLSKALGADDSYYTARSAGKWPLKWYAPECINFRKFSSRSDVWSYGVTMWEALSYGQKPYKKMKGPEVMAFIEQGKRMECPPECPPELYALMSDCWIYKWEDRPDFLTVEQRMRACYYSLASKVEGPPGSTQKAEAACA
UniProt Q6IQ55, whole entry: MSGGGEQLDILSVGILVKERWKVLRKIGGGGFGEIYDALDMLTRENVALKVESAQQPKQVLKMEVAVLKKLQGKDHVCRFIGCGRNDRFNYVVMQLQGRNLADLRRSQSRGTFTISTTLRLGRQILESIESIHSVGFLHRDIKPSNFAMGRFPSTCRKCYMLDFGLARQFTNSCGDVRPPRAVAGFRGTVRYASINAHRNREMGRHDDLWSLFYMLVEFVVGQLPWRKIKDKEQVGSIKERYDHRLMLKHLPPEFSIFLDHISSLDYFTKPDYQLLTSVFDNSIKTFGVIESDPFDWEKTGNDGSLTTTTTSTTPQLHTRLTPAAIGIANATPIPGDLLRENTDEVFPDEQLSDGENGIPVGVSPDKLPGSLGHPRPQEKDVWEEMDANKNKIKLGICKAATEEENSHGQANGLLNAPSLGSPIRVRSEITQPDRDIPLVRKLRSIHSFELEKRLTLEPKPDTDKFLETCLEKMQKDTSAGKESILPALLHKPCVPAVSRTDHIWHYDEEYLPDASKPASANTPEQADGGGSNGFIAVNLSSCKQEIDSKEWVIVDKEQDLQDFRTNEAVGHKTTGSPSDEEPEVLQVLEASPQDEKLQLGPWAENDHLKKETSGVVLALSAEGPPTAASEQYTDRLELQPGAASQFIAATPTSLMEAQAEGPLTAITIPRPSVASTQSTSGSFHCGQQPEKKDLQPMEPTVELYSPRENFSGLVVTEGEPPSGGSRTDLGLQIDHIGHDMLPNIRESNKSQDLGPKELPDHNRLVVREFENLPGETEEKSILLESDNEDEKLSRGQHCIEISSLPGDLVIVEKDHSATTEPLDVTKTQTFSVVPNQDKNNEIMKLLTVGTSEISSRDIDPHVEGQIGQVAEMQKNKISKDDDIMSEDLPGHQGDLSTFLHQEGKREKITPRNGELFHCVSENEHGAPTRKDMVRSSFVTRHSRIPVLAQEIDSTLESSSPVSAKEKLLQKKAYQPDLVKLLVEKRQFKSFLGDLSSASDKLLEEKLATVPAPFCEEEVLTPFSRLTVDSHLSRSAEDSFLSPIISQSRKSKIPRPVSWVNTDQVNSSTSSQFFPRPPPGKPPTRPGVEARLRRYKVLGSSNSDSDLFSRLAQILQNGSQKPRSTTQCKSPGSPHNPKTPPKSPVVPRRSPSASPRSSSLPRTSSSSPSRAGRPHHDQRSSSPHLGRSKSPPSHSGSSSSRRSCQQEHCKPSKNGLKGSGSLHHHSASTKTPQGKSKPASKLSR
UniProt P06493, whole entry: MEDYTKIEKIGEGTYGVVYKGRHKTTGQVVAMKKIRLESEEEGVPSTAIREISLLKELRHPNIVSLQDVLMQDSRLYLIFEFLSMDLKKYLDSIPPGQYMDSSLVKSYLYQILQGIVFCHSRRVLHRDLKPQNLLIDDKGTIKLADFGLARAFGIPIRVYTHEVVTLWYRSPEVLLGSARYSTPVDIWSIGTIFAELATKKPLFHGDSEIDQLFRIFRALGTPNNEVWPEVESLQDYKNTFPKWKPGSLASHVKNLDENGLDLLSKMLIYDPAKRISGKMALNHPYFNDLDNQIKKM

Legend:
Experiment in all cases: biochemical
Settings in all cases: read-out: % remaining activity
PHKg1 = PHKg1 (Homo sapiens, UniProt Q16816)
ERK1 = molecular target: T1, ERK1 (Homo sapiens, UniProt P27361)
T1 construct: gene MAPK3

PASK = PASK (Homo sapiens, UniProt Q96RG2)
SIK1 = SIK1 (Homo sapiens, UniProt P57059)
CDK2/cyclin A1 = CDK2/cyclin A1 (Homo sapiens, UniProt P24941)
PKCzeta = molecular target: T2, PKCzeta (Homo sapiens, UniProt Q05513)
T2 construct: gene PRKCZ

TSSK2 = TSSK2 (Homo sapiens, UniProt Q96PF2)
BTK = BTK (Homo sapiens, UniProt Q06187)
CDK6/cyclin D1 = CDK6/cyclin D1 (Homo sapiens, UniProt Q00534)
STK38L = STK38L (Homo sapiens, UniProt Q9Y2H1)
FGFR4 = FGFR4 (Homo sapiens, UniProt P22455)
LYN = LYN (Homo sapiens, UniProt P07948)
ROCK2 = ROCK2 (Homo sapiens, UniProt O75116)
CK1g2 = molecular target: T3, CK1g2 (Homo sapiens, UniProt P78368)
T3 construct: gene CSNK1G2

GRK1 = GRK1 (Homo sapiens, UniProt Q15835)
ZAP70 = ZAP70 (Homo sapiens, UniProt P43403)
BMPR2 = BMPR2 (Homo sapiens, UniProt Q13873)
JNK2 = molecular target: T4, JNK2 (Homo sapiens, UniProt P45984)
T4 construct: gene MAPK9

TTBK2 = TTBK2 (Homo sapiens, UniProt Q6IQ55)
CDK1/cyclin A = CDK1/cyclin A (Homo sapiens, UniProt P06493)
PDGFRb = PDGFRb (Homo sapiens, UniProt P09619)

COc1cc(-c2nn(CCN3CCC(N(C)C)CC3)c3ncnc(N)c23)ccc1NC(=O)OC(C)(C)C [eCF506]
remaining activity at 1 µM (PHKg1): 98.5%
remaining activity at 1 µM (ERK1): 105%
remaining activity at 1 µM (PASK): 111%
remaining activity at 1 µM (SIK1): 98.9%
remaining activity at 1 µM (CDK2/cyclin A1): 92.9%
remaining activity at 1 µM (PKCzeta): 96.5%
remaining activity at 1 µM (TSSK2): 123%
remaining activity at 1 µM (BTK): 3.8%
remaining activity at 1 µM (CDK6/cyclin D1): 105%
remaining activity at 1 µM (STK38L): 100%
remaining activity at 1 µM (FGFR4): 94.9%
remaining activity at 1 µM (LYN): 1.3%
remaining activity at 1 µM (ROCK2): 92.8%
remaining activity at 1 µM (CK1g2): 90.9%
remaining activity at 1 µM (GRK1): 104%
remaining activity at 1 µM (ZAP70): 102%
remaining activity at 1 µM (BMPR2): 89.6%
remaining activity at 1 µM (JNK2): 104%
remaining activity at 1 µM (TTBK2): 106%
remaining activity at 1 µM (CDK1/cyclin A): 97.1%
remaining activity at 1 µM (PDGFRb): 104%
